Earlier results on one molecule are cited in US20080160065A1, “DRUG DELIVERY POLYMER WITH HYDROCHLORIDE SALT OF CLINDAMYCIN” (priority 2006, published 2008).

For the data set the following is noted: intramuscular.

Each structure is given as a SMILES string. Like-named read-outs stand apart in the source and are kept apart here.

On to `CCC[C@@H]1C[C@@H](C(=O)N[C@@H]([C@H]2O[C@H](SC)[C@H](O)[C@@H](O)[C@H]2O)[C@H](C)Cl)N(C)C1` [clindamycin], for which the peak plasma concentration entry (after a 300 mg dose) is given as “approximately 61 μg/ml” and the peak plasma concentration (after a 600 mg dose) is roughly 9 µg/mL.
